From US7737155B2, “Nitrogen-containing heterocyclic compounds and methods of use thereof” (Schering Corporation, priority 2005, dated 2010)

The chains behind the UniProt entries cited, without tags or fusion partners.
UniProt Q8TDS4, whole entry: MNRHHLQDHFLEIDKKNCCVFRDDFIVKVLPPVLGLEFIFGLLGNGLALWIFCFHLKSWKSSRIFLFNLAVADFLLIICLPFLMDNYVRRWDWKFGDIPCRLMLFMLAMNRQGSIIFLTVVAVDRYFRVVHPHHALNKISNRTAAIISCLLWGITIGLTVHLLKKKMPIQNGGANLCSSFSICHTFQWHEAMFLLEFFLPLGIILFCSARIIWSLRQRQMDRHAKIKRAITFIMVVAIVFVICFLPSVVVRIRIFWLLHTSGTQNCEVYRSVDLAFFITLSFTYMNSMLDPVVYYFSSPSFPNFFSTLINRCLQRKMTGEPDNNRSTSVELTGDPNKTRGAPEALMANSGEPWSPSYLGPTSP

Target: recombinant human nicotinic acid receptor (NAR) (Homo sapiens, UniProt Q8TDS4)
Test: Nicotinic Acid Receptor Assay: inhibition of forskolin-stimulated cAMP accumulation in CHO cells (MesoScale Discovery cAMP kit)
Format: cell-based
Conditions: read-out: NA EC50 camp, CHO cells expressing recombinant human NAR

With `CCc1cc(=O)oc2nc(OCC3CN(Cc4ccccc4)CCO3)[nH]c(=O)c12` (centres unmarked) the EC50 was > 1 µM.

For `CCc1cc(=O)oc2nc(OCCOc3cccc(C(F)(F)F)c3)[nH]c(=O)c12`, the EC50 was 0.1 to 1 µM.
